Measurements as given in patent US8691817B2, “Sulfonic amide and sulfoximine-substituted diaryl-dihydropyrimidinones and usage thereof” (Bayer Intellectual Property GmbH, priority 2009, dated 2014).

Test system: rat hepatocytes
Assay: Hepatocyte assay to determine the metabolic stability
Assay type: in vitro ADME
Conditions: after incubation with rat hepatocytes
Procedure: The metabolic stability of test compounds in the presence of hepatocytes is determined by incubating the compounds with low concentrations (preferably below or around 1 μM) and with low cell counts (preferably 1*10^6 cells/ml) in order to ensure as far as possible linear kinetic conditions in the experiment. Seven samples of the incubation solution are taken in a fixed time pattern for the […] analysis in order to determine the half-life (i.e. the degradation) of the compound in each case. Various clearance parameters (CL) and Fmax values are calculated from this half-life (see below).
The Cl and Fmax values represent a measure of the phase 1 and phase 2 metabolism of the compounds in the hepatocytes. In order to minimize the influence of the organic solvent on the enzymes in the incubation mixtures, this concentration is generally limited to 1% (acetonitrile) or 0.1% (DMSO).
A cell count for hepatocytes in the liver of 1.1*10^8 cells/g of liver is used for calculation for all species and breeds. CL parameters calculated on the basis of half-lives extending substantially beyond the incubation time (normally 90 minutes) can be regarded only as rough guidelines. […]

Structure (SMILES): CC1=C(C#N)[C@@H](c2ccc(C#N)cc2S(C)(=N)=O)N(C)C(=O)N1c1cccc(C(F)(F)F)c1 (mixture of isomers) [Example 38, (SS)-(4S)-4-[4-Cyano-2-(S-methylsulfonimidoyl)phenyl]-3,6-dimethyl-2-oxo-1-[3-(trifluoromethyl)phenyl]-1,2,3,4-tetrahydropyrimidine-5-carbonitrile or (RS)-(4S)-4-[4-cyano-2-(S-methylsulfonimidoyl)phenyl]-3,6-dimethyl-2-oxo-1-[3-(trifluoromethyl)phenyl]-1,2,3,4-tetrahydropyrimidine-5-carbonitrile]
- Fmax, maximum possible bioavailability after oral administration (well-stirred): 99%
